In PubChem BioAssay (NCI):
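In this assay, cells in 96-well plates receive the compound at five concentrations for 48 hours. Endpoints are linearly interpolated between the surrounding concentrations. Here, GI50 denotes the concentration required for 50% inhibition of growth. The concentration for full growth arrest is given as TGI.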

Experiments:
Test in all cases: NCI anticancer screen, dose series, 48 h
[1] = system: SNB-19 CNS
[2] = system: SW-620 colon
[3] = system: SF-539 CNS
[4] = system: SK-MEL-2 melanoma
[5] = system: IGROV1 ovarian
[6] = system: MALME-3M melanoma
[7] = system: ACHN renal
[8] = system: UACC-257 melanoma
[9] = system: SN12C renal
[10] = system: CCRF-CEM leukemia
[11] = system: SK-OV-3 ovarian
[12] = system: OVCAR-5 ovarian
[13] = system: NCI-H226 lung
[14] = system: UACC-62 melanoma
[15] = system: NCI-H460 lung
[16] = system: OVCAR-4 ovarian
[17] = system: TK-10 renal
[18] = system: T-47D breast
[19] = system: MDA-MB-231 breast
[20] = system: A498 renal
[21] = system: OVCAR-3 ovarian
[22] = system: MOLT-4 leukemia
[23] = system: HL-60(TB) leukemia
[24] = system: KM12 colon
[25] = system: 786-0 renal
[26] = system: HCC-2998 colon
[27] = system: RXF 393 renal
[28] = system: EKVX NSCLC
[29] = system: MDA-N
[30] = system: HOP-92 NSCLC
[31] = system: MDA-MB-435
[32] = system: K-562 leukemia
[33] = system: SF-295 CNS
[34] = system: BT-549 breast
[35] = system: SF-268 CNS
[36] = system: SR leukemia
[37] = system: SNB-75 CNS
[38] = system: OVCAR-8 ovarian
[39] = system: UO-31 renal
[40] = system: A549 NSCLC
[41] = system: RPMI-8226 leukemia
[42] = system: NCI/ADR-RES ovarian
[43] = system: SK-MEL-28 melanoma
[44] = system: NCI-H522 lung
[45] = system: PC-3 prostate
[46] = system: HCT-116 colon
[47] = system: HS 578T breast
[48] = system: COLO 205 colon
[49] = system: U251 CNS
[50] = system: HT29 colon
[51] = system: DU-145 prostate
[52] = system: MCF7 breast
[53] = system: SK-MEL-5 melanoma
[54] = system: M14 melanoma
[55] = system: NCI-H322M lung
[56] = system: HOP-62 NSCLC
[57] = system: NCI-H23 lung
[58] = system: HCT-15 colon
[59] = system: LOX IMVI melanoma
[60] = system: CAKI-1 renal

O=[N+]([O-])c1cc([N+](=O)[O-])c(-c2nc(Cl)c3c([N+](=O)[O-])cc([N+](=O)[O-])cc3[n+]2[O-])c([N+](=O)[O-])c1 showed a GI50 [1] of 4.36 µM, a TGI [1] of 8.8 µM and a GI50 [2] of 2.1 µM. The TGI [2] was 4.07 µM, the GI50 [3] was 3.91 µM and the TGI [3] was 9.4 µM. The GI50 [4] was 16.3 µM, the TGI [4] was 22.9 µM and the GI50 [5] was 2.5 µM. The TGI [5] was 5.43 µM, the GI50 [6] was 1.9 µM and the TGI [6] was 3.54 µM. It also gave a GI50 [7] of 1.67 µM, a TGI [7] of 3.04 µM and a GI50 [8] of 2.2 µM. It also gave a TGI [8] of 4.59 µM, a GI50 [9] of 2.44 µM and a TGI [9] of 5.85 µM. For the same compound, the GI50 [10] was 0.497 µM, the TGI [10] was 1.28 µM and the GI50 [11] was > 100 µM. For the same compound, the TGI [11] was > 100 µM, the GI50 [12] was 2.45 µM and the TGI [12] was 5.09 µM. The GI50 [13] was 13 µM, the TGI [13] was 39.2 µM and the GI50 [14] was 16.4 µM. For the same compound, the TGI [14] was 28.6 µM, the GI50 [15] was 5.96 µM and the TGI [15] was 12.8 µM. For the same compound, the GI50 [16] was 1.9 µM, the TGI [16] was 3.36 µM and the GI50 [17] was 2.09 µM. For the same compound, the TGI [17] was 4.23 µM, the GI50 [18] was 14.7 µM and the TGI [18] was 23.6 µM. The GI50 [19] was 1.91 µM, the TGI [19] was 3.58 µM and the GI50 [20] was 13 µM. For the same compound, the TGI [20] was 27.8 µM, the GI50 [21] was 1.8 µM and the TGI [21] was 3.27 µM. It also gave a GI50 [22] of 0.522 µM, a TGI [22] of 1.42 µM and a GI50 [23] of 0.299 µM. It also gave a TGI [23] of 0.914 µM, a GI50 [24] of 6.79 µM and a TGI [24] of 18.3 µM. It also gave a GI50 [25] of 1.69 µM, a TGI [25] of 3.11 µM and a GI50 [26] of 15.1 µM. It also gave a TGI [26] of 24 µM, a GI50 [27] of 1.74 µM and a TGI [27] of 3.7 µM. It also gave a GI50 [28] of 4.66 µM, a TGI [28] of 9.07 µM and a GI50 [29] of 1.95 µM. It also gave a TGI [29] of 3.48 µM, a GI50 [30] of 1.78 µM and a TGI [30] of 3.22 µM. For the same compound, the GI50 [31] was 1.67 µM, the TGI [31] was 3.16 µM and the GI50 [32] was 0.682 µM. The TGI [32] was 1.78 µM, the GI50 [33] was 7.78 µM and the TGI [33] was 19.6 µM. It also gave a GI50 [34] of 1.92 µM, a TGI [34] of 3.45 µM and a GI50 [35] of 1.6 µM. The TGI [35] was 3.2 µM, the GI50 [36] was 0.361 µM and the TGI [36] was > 100 µM. It also gave a GI50 [37] of 3.01 µM, a TGI [37] of 10.7 µM and a GI50 [38] of 1.8 µM. The TGI [38] was 3.33 µM, the GI50 [39] was 2.11 µM and the TGI [39] was 4.55 µM. The GI50 [40] was 11.6 µM, the TGI [40] was 26.2 µM and the GI50 [41] was 0.528 µM. For the same compound, the TGI [41] was 16.6 µM, the GI50 [42] was 1.31 µM and the TGI [42] was 3.74 µM. It also gave a GI50 [43] of 1.81 µM, a TGI [43] of 3.4 µM and a GI50 [44] of 1.88 µM. For the same compound, the TGI [44] was 3.78 µM, the GI50 [45] was 1.76 µM and the TGI [45] was 3.2 µM. The GI50 [46] was 1.74 µM, the TGI [46] was 3.21 µM and the GI50 [47] was 3.6 µM. For the same compound, the TGI [47] was 17.5 µM, the GI50 [48] was 1.75 µM and the TGI [48] was 3.23 µM. For the same compound, the GI50 [49] was 1.8 µM, the TGI [49] was 3.35 µM and the GI50 [50] was 1.99 µM. It also gave a TGI [50] of 3.95 µM, a GI50 [51] of 6.14 µM and a TGI [51] of 16.9 µM. For the same compound, the GI50 [52] was 1.04 µM, the TGI [52] was 3.58 µM and the GI50 [53] was 2.91 µM. The TGI [53] was 6.58 µM, the GI50 [54] was 1.95 µM and the TGI [54] was 3.63 µM. It also gave a GI50 [55] of 6.87 µM, a TGI [55] of 19.5 µM and a GI50 [56] of 7.45 µM. For the same compound, the TGI [56] was 15.7 µM, the GI50 [57] was 2.84 µM and the TGI [57] was 6.86 µM. For the same compound, the GI50 [58] was 10.7 µM, the TGI [58] was 18.6 µM and the GI50 [59] was 1.58 µM. It also gave a TGI [59] of 3.1 µM, a GI50 [60] of 1.83 µM and a TGI [60] of 3.23 µM.
